Source: patent US7378408B2, “Methods of treatment and formulations of cephalosporin” (Pfizer Inc., priority 2001, dated 2008)
Where a name gives a salt, the structure may show the parent alone.

Assays:
Pasteurella multocida = assay: Experimentally induced abscess model study in cats; type: in vivo; conditions: 14 days after a single administration of 8 mg/kg
pathogenic Staphylococci = assay: Populations of pathogenic Staphylococci in healthy dogs; conditions: single administration of 8 mg/kg, for four weeks, compared to non-treated control animals
Bacteriodes fragilis = assay: Experimentally induced abscess model study in cats; type: in vivo; conditions: 14 days after a single administration of 8 mg/kg

`CO/N=C(\C(=O)N[C@@H]1C(=O)N2C(C(=O)O)=C([C@@H]3CCCO3)CS[C@H]12)c1csc(N)n1` [Compound I, (6R,7R)-7-[[(2Z)-(2-amino-4-thiazolyl)(methoxyimino)acetyl]amino]-8-oxo-3-[(2S)-tetrahydro-2-furanyl]-5-thia-1-azabicyclo[4.2.0]oct-2-ene-2-carboxylic acid, monosodium salt] was tested, and the “reduction in the numbers of Pasteurella multocida bacteria” value (Pasteurella multocida) was “substantial reduction”, the “reduction of the populations of pathogenic Staphylococci” value (pathogenic Staphylococci) was “significant reduction” and the “reduction in the numbers of Bacteriodes fragilis bacteria” value (Bacteriodes fragilis) was “substantial reduction”.
